Earlier results on 1 substance are cited in patent US5508310A, “Immunopotentiatory agents and physiologically acceptable salts thereof” (Burroughs Wellcome Co., priority 1992, dated 1996).

This series relates to Pneumocystis carinii. The settings on record: AIDS patients; Wofsy 1986; cited from earlier work.

For the substance trimethoprim-sulphamethoxazole, the “Incidence of adverse reactions” value was “around 50%”.
